The numbers were not newly measured in patent US6149937A, “Liposome encapsulated amphiphilic drug compositions” (priority 1996, dated 2000), which cites them from elsewhere.

SMILES strings stand for the structures. Only a part of the results on these compounds is given; other tests are left out.

The conditions of series [1]: Table II; cited from earlier work.
For series [2] the following is noted: Table II; cited from earlier work. The source holds these as a separate data set.

As for `CCC(=O)N(c1ccccc1)C1CCN(CCc2ccccc2)CC1`, the Log Poct in series [1] is 3. Also, in series [2], the pKs is 8.4.
In the case of `CCC(=O)N(c1ccccc1)C1(COC)CCN(CCc2cccs2)CC1`, in series [1], the Log Poct is 3.2. Besides, the pKs in series [2] is 8.1.
As for `CCC(=O)N(c1ccccc1)C1(COC)CCN(CCn2nnn(CC)c2=O)CC1`, the Log Poct in series [1] was 2.1. Moreover, the pKs in series [2] is 6.5.
